Measured values from publication PMC9134086, “Inhibition of Dipeptidyl Peptidase-4 by Flavonoids: Structure–Activity Relationship, Kinetics and Interaction Mechanism” (Frontiers in Nutrition, 2022).

By UniProt entry, the sequences of proteins in these tests, tags left out.
UniProt P27487, whole entry: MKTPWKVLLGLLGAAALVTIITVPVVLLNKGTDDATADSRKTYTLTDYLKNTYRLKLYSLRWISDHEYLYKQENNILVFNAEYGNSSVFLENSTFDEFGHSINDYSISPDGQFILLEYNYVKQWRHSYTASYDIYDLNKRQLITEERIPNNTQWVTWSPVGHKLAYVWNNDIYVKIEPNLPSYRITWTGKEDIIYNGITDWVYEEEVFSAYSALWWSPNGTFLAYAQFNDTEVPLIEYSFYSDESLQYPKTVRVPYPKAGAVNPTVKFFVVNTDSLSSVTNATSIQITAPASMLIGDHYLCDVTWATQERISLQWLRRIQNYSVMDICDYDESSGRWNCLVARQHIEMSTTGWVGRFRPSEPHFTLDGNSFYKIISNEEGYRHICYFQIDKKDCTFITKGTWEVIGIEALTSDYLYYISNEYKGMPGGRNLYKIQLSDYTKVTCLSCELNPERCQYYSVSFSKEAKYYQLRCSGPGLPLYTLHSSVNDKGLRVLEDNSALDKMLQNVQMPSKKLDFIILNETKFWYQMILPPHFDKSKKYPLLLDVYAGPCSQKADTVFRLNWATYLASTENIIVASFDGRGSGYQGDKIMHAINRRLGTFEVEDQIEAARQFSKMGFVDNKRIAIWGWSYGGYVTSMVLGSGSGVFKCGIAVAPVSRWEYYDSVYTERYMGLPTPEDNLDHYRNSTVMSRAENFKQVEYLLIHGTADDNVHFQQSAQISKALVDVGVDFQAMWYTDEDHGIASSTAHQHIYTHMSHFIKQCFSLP

What was measured:
[1] = molecular target: T1, DPP-4 (human recombinant) (Homo sapiens, UniProt P27487); assay: In vitro assay for DPP-4 inhibitory activity (fluorescence, Gly-Pro-AMC); format: biochemical; details: DPP-4 inhibition, fluorescence method;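 note: fluorescence of released AMC (excitation 360 nm, emission 460 nm) followed kinetically over 30 min at 37 °C in Tris-HCl pH 8.0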
T1 construct: purchased Sigma Aldrich D3446

[2] = molecular target: T1, DPP-4 (human recombinant); assay: Inhibition kinetic analysis (V vs [DPP-4], Lineweaver-Burk, Dixon and Cornish-Bowden plots); format: biochemical; details: Dixon equation; read-out: Kic (competitive inhibition constant)

With `O=c1c(O[C@@H]2O[C@H](CO)[C@H](O)[C@H](O)[C@H]2O)c(-c2ccc(O)c(O)c2)oc2cc(O)cc(O)c12` [E4, Hyperoside] the IC50 [1] was 139 µM and < 200 µM and the Ki [2] was 90.3 ± 1 µM.

Where “and” joins values, the source holds several entries; their conditions need not be identical. Equal values may be shown once.
